“And” between values parts separate entries of the source, which are not always exact repeats. Equal entries are not always repeated. Only a part is listed here, and it is no random draw. Inconclusive results are not listed. The source made the active and inactive calls. Unless noted, calls follow the shape of the dose curve; as a rule, active = well fitted curve in the direction sought with a large enough effect in the repeat runs; inconclusive = weak or mixed curves; inactive = no such curve, though single readings can be large; an effect the other way counts as inactive or inconclusive.
What was measured:
[1] = qHTS assay to identify small molecule antagonists of the retinoid-related orphan receptor gamma (ROR-gamma) signaling pathway - cell viability counter screen (AID 1159520); details: Tet-on RORgamma CHO cells viability, ATP luminescence, 16 h; also: nearly all actives have a fitted effect of over 50% in size
How it was run: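 Tet-on ROR gamma CHO cells (1,000/well) were plated 4 hr, given compounds in DMSO for 2 hr at 37 C, then induced with 1 uM final doxycycline for 16 hr. Viability was read as ATP by CellTiter-Glo luminescence after 30 min.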

The chains behind the UniProt entries cited, without tags or fusion partners.
UniProt Q14994, whole entry: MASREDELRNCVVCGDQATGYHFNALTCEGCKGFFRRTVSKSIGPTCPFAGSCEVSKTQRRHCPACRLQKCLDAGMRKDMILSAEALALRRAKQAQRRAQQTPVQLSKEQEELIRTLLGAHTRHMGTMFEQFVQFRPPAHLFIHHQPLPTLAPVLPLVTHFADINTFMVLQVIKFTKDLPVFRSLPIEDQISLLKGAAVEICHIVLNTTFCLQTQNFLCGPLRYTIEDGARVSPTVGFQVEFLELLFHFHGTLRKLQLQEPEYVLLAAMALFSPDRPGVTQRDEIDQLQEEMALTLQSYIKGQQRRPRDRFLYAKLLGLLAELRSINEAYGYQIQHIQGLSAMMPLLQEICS
UniProt O75469, whole entry: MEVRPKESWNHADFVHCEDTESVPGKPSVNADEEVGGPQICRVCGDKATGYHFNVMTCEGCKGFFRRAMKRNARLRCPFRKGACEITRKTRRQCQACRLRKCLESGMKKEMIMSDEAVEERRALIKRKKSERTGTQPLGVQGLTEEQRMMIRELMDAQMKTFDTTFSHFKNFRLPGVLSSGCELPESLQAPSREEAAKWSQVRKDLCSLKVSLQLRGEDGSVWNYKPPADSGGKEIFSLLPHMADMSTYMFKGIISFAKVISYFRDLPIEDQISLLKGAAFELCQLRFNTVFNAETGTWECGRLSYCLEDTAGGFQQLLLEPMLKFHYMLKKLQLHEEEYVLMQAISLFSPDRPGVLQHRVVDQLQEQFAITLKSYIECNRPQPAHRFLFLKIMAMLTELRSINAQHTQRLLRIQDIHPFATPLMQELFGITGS

[2] = qHTS assay to identify small molecule agonists of the AP-1 signaling pathway (AID 1159526; calls by dose curve); details: ME-180 (cervical carcinoma) AP-1-bla reporter, beta-lactamase FRET ratio, 5 h
[3] = qHTS assay to identify small molecule agonists of the RXR signaling pathway - cell viability counter screen (AID 1159529); details: RXR-alpha-bla HEK293T viability, CellTiter-Glo, 16 h; also: nearly all actives have a fitted effect of over 50% in size
How it was run: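 HEK 293T RXRa-bla cells, 2% CS-FBS; 5 h settle; cpd 16 h 37 C, 5% CO2; CellTiter-Glo 30 min RT, luminescence. Tetraoctyl ammonium bromide as positive control.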

[4] = qHTS assay to identify small molecule antagonists of the retinoic acid receptor (RAR) signaling pathway (AID 1159552; also: nearly all actives have a fitted effect of over 50% in size); details: C3RL4 RARE luciferase reporter, retinol-stimulated, 6 h
How it was run: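 Cells of the C3RL4 line were seeded, incubated overnight, then dosed with compounds in DMSO followed immediately by retinol (1 uM final). Six hours later luciferase detection reagent went in; signal was measured after 30 min at RT.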

[5] = qHTS assay to identify small molecule antagonists of the estrogen related receptor (ERR) signaling pathway from Tox21 library - cell viability counter screen (AID 1224834); details: ERR reporter cells viability, CellTiter-Fluor, 17.5 h; also: nearly all actives have a fitted effect of over 30% in size
How it was run: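 ERR reporter cells, 2,000 per well, rested 6 h, then exposed to compound in DMSO for 17.5 hours at 37 C. Viability read as fluorescence after 30 min with CellTiter-Fluor.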

[6] = qHTS assay to identify small molecule agonists of the constitutive androstane receptor (CAR) signaling pathway - cell viability counter screen (AID 1224836); details: HepG2-CYP2B6-hCAR viability, CellTiter-Fluor, 23 h; PK11195 added to every well; also: nearly all actives have a fitted effect of over 45% in size
How it was run: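 HepG2-CYP2B6-hCAR, 2500 cells/well, 4 h pre-incubation; cpd 15 conc + PK11195 0.75 uM final; 23 h, 37 C/5% CO2; CellTiter-Fluor, fluorescence.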

[7] = qHTS assay to identify small molecule antagonists of the constitutive androstane receptor (CAR) signaling pathway - cell viability counter screen (AID 1224837); details: HepG2-CYP2B6-hCAR viability, CellTiter-Fluor, 23 h; co-treated with 50 nM CITCO; also: nearly all actives have a fitted effect of over 45% in size
How it was run: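 HepG2 cells stably carrying hCAR and CYP2B6-2.2kb reporter, stimulated with 50 nM CITCO and compounds at 15 concentrations for 23 h at 37 C. Viability measured by CellTiter-Fluor fluorescence.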

[8] = target: Nuclear receptor subfamily 1 group I member 3 (Homo sapiens) (UniProt Q14994); experiment: qHTS assay to identify small molecule antagonists of the constitutive androstane receptor (CAR) signaling pathway (AID 1224838); details: HepG2-CYP2B6-hCAR luciferase, CITCO-stimulated, 24 h; also: nearly all actives have a fitted effect of over 40% in size
[9] = qHTS assay to identify small molecule agonists of the estrogen related receptor signaling pathway with the pleiotropic PPARgamma coactivator (PGC) from Tox21 10K library (AID 1224842); details: PGC/ERR reporter cell line, luciferase ONE-Glo, 18 h; also: nearly all actives have a fitted effect of over 15% in size
How it was run: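 PGC/ERR reporter cells (NTP line) were seeded 2,000 per well, rested 6 h at 37 C/5% CO2, then pin-dosed with compounds in DMSO for 18 h at 37 C; luciferase read by One-Glo luminescence after 30 min at room temperature.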

[10] = qHTS assay to identify small molecule antagonists of the estrogen related receptor (ERR) signaling pathway from Tox21 library (AID 1224848); details: ERR reporter cell line, luciferase antagonist mode, 18 h; also: nearly all actives have a fitted effect of over 50% in size
How it was run: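 Screening used an ERR reporter line supplied by NTP, exposed for 18 h at 37 C to library compounds delivered in DMSO. Signal was luciferase luminescence developed with ONE-Glo at room temperature for 30 min.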

[11] = qHTS assay to identify small molecule agonists of the sonic hedgehog signaling (Shh) pathway - cell viability counter screen (AID 1259366); details: NIH/3T3 Gli1-Luc viability, CellTiter-Fluor, 24 h; series mostly up to 92.4 µM; also: nearly all actives have a fitted effect of over 50% in size
How it was run: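 Cytotoxicity counter screen run in the same wells as the Shh reporter assay. NIH/3T3 cells carrying a Gli1 response element–driven luciferase were treated with DMSO-dissolved compounds for 24hr, and live-cell protease activity was measured with CellTiter-Fluor.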

[12] = qHTS assay to identify small molecule antagonists of the sonic hedgehog signaling (Shh) pathway - cell viability counter screen (AID 1259367); details: NIH/3T3 Gli1-Luc viability, CellTiter-Fluor, 24 h; also: nearly all actives have a fitted effect of over 55% in size
How it was run: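 After a 4 hr settling period, 3T3 Gli1-Luc cells were treated with DMSO-dissolved chemicals and conditioned medium, kept 24 hr at 37C in 5% CO2, and assayed for viability by CellTiter-Fluor fluorescence following 1 hr reagent incubation.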

[13] = qHTS assay to identify small molecule agonists of the androgen receptor (AR) signaling pathway in the presence of an antagonist - cell viability counter screen (AID 1259379); details: MDA-kb2 viability, CellTiter-Fluor, 16 h; also: nearly all actives have a fitted effect of over 25% in size
How it was run: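 MDA-kb2 cells (MMTV-luciferase, AR/GR), 3,000/well, 5 h attachment, then 3.0 µM nilutamide (final) and compounds at 15 concentrations. Viability by CellTiter-Fluor fluorescence after 16 h at 37 °C, 0% CO2, in the reporter wells.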

[14] = qHTS assay to identify small molecule agonists of the TGF-beta/Smad signaling pathway - cell viability counter screen (AID 1346829); details: SBE-bla HEK293T viability, CellTiter-Glo luminescence, 5 h; also: nearly all actives have a fitted effect of over 45% in size
How it was run: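 Here the cytotoxicity of library compounds is measured in SBE-bla HEK 293T cells treated for 5 hr, using CellTiter-Glo added to wells already read for the beta-lactamase reporter.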

[15] = Human pregnane X receptor (PXR) small molecule agonists, qHTS cell viability counter screen (AID 1346977); details: PXR-Luc HepG2 viability, CellTiter-Fluor, 24 h; also: nearly all actives have a fitted effect of over 50% in size
How it was run: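 PXR-Luc HepG2, 2,000 cells/well, 5% charcoal-stripped FBS; 5hr settle; cpd 24hr, 37C/5% CO2; CellTiter-Fluor at 23hr, read 1hr later (fluorescence).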

[16] = Caspase-3/7 induction in CHO-K1 cells by small molecules, qHTS cell viability counter screen (AID 1346979); details: CellTiter-Fluor fluorescence, 17 h; also: nearly all actives have a fitted effect of over 35% in size
How it was run: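 Cells (CHO-K1, wild type) are plated at 1,500 per well and incubated 5hr. Test compounds in DMSO are then pinned in, followed by 16hr at 37C and 5% CO2. Viability is read by CellTiter-Fluor fluorescence after 1hr.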

[17] = Caspase-3/7 induction in CHO-K1 cells by small molecules, qHTS assay (AID 1346980); details: CHO-K1 caspase-3/7 induction, Caspase-Glo luminescence, 17 h; also: nearly all actives have a fitted effect of over 15% in size
How it was run: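 Wild-type cells were seeded at 1,500 per well and settled 5 hr at 37 C, 5% CO2, then exposed to DMSO-dissolved compounds for 17 hr. Caspase-Glo 3/7 reagent was added, and luminescence was read after 30min at room temperature.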

[18] = Caspase-3/7 induction in HepG2 cells by small molecules, qHTS cell viability counter screen (AID 1346981); details: CellTiter-Fluor fluorescence, 17 h; also: nearly all actives have a fitted effect of over 30% in size
How it was run: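 Wild-type HepG2 cells, 2,000/well, settled 5 hr at 37 C, 5% CO2 before compound addition. Viability read by CellTiter-Fluor fluorescence, reagent added after 16 hr compound exposure, then 1 hr at 37C, in the same wells as the caspase read.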

[19] = target: Nuclear receptor subfamily 1 group I member 2 (Homo sapiens) (UniProt O75469); experiment: Human pregnane X receptor (PXR) small molecule agonists, qHTS assay (AID 1346982); details: PXR-Luc HepG2, CYP3A4 luciferase reporter, 24 h; also: nearly all actives have a fitted effect of over 35% in size
How it was run: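 PXR-Luc HepG2 reporter cells (CYP3A4-driven luciferase) in 5% charcoal-stripped FBS medium, plated 5 h before compound addition, then treated 24 h at 37C. Luciferase read by ONE-Glo luminescence after 30 min at room temperature.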

Measured: Potency
Potency is read from the fitted curve at half-maximal effect.

CN(CCCl)CCCl
active: [1] 21.6 µM and 13.3 µM | [2] 23.9 µM | [3] 43.6 µM | [4] 48.5 µM | [5] 43.2 µM | [6] 54.4 µM | [7] 54.4 µM | [8] 54.4 µM | [9] 11.9 µM | [10] 43.2 µM | [11] 27.3 µM | [12] 30.6 µM | [13] 27.3 µM and 26.6 µM | [14] 54.8 µM | [15] 24.3 µM | [16] 27.3 µM and 29.8 µM | [17] 68.5 µM | [18] 21.6 µM and 29.8 µM | [19] 8.62 µM

— PubChem BioAssay (Tox21)
